Our source for the IC50 values is BindingDB's records for doi:10.7270/Q2474894 (Burnham Center for Chemical Genomics, 2009).

In the test the target is T1, Tyrosine-protein phosphatase non-receptor type 7 (Homo sapiens, UniProt P35236).
T1 sequence (P35236 whole entry): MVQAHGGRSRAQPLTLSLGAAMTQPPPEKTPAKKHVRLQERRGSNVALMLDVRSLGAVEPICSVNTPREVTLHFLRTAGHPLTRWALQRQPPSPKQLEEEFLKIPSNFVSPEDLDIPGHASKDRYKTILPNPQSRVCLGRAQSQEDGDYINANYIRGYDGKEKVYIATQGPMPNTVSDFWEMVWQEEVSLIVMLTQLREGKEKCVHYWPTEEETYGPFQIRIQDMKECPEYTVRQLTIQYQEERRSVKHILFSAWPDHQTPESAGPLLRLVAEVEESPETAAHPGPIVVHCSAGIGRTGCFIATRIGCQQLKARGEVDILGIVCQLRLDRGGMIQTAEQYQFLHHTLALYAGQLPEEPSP

One may read the IC50 as the concentration needed to halve the response being measured. Compound `O=S(=O)(O)c1ccc2cc(N=Nc3cc(S(=O)(=O)O)c4cccnc4c3O)ccc2c1` [disodium;(7E)-8-oxidanylidene-7-[(6-sulfonatonaphthalen-2-yl)hydrazinylidene]quinoline-5-sulfonate] showed a 50% inhibitory concentration (IC50) of 2670 nM.
